High-throughput results from PubChem.
HCMV UL50-53 inh – disrupts HCMV UL50-UL53 complex binding; 190,000 compounds, 0.15% hits; AID 1918969; inhibition, % (no concentration beside the values); HTRF UL50-UL53 interaction, normalized percent inhibition; in the data active = inhibition above about 27%, passing the limit was not always enough
GIV-Gai inh – inhibitors of GIV peptide binding to Galpha-i3, primary screen, biochemical, fluorescence polarization, FITC-GIV GBA peptide, rat Galphai3. Guanine nucleotide-binding protein G(i) subunit alpha-3 (Rattus norvegicus), P08753. 90 min; stronger effect = lower value; scaled: aluminum fluoride 0%, vehicle 100%. percent of control (FP), % (test concentration not listed). hit rate 0.42% among 210,000. AID 1224905, 2016;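 active = replicate mean at 85% of control or lower, very high polarization wells dropped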;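 note: wells of about 15 µL received 100 nL stock; the first replicate is given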
GIV-Gai FP conf – GIV-Galpha-i3 inhibition, FP confirmation. shares compounds with GIV-Gai inh. FITC-GIV peptide binding to Galphai3, fluorescence polarization; hits give low values. fluorescence polarization, mP at 100 µM. 580 compounds, 38% hits. AID 1259350;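 active = inhibition score of 15 or more, meaning 100 minus mean polarization as percent of control over three replicates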;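 also: lower mP means peptide displaced from Galphai3 so more inhibition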
GIV-Gai AS conf – confirmation of inhibitors of GIV binding to human Galpha-i3 | AlphaScreen counts at 100 µM | 580 compounds, 39% hits | AlphaScreen Galphai3-GIV binding, purified proteins, 90 min; hits give low values | AID 1259351 | shares compounds with GIV-Gai inh;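 active = inhibition score at or above a set limit, where the score is 100 minus the three-replicate mean percent of control signal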
A number is an active result; - = inactive; . = no result given. A selection: hits, their analogues and other compounds. The true share with any hit is near 0.43%.

Protein sequences, listed by entry. Tags and fused reporters are not part of them.
Guanine nucleotide-binding protein G(i) subunit alpha-3 (Rattus norvegicus), P08753, UniProt P08753, whole entry, looked up: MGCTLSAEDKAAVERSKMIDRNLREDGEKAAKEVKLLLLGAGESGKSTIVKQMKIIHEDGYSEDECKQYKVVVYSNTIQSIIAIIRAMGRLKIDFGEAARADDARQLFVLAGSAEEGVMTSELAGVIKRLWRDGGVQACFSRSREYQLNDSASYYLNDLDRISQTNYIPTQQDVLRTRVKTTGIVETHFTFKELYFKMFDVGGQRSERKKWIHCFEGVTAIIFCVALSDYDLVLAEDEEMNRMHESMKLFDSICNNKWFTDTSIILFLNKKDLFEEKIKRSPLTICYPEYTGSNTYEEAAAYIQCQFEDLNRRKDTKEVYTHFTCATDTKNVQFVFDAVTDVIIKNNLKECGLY

SMILES | HCMV UL50-53 inh | GIV-Gai inh | GIV-Gai FP conf | GIV-Gai AS conf
COc1ccc(OCCCN2C(=O)NC(C)(C)C2=O)cc1 | - | - | . | .
Cc1cccc(NC(=O)c2sc3nc(-c4cccs4)cc(C(F)(F)F)c3c2N)n1 | . | - | . | .
Nc1c(C(=O)Nc2ccccn2)sc2nc(-c3cccs3)cc(C(F)(F)F)c12 | . | 43 | - | -
Cc1ccc(NC(=O)CN2C(=O)CSC(C)C2=O)cc1 (stereo not drawn) | - | . | . | .
O=C(O)C1CC(=O)N(Cc2ccc(F)cc2)C1 (stereo not drawn) | . | - | . | .
O=C(O)C1CC(=O)N(Cc2ccc3c(c2)OCO3)C1 (stereo not drawn) | - | 51 | 18 | 1816
Cc1cc(C(F)(F)F)[nH]c(=O)c1C#N | - | . | . | .
Cc1cc(C(F)(F)F)c(C#N)c(=O)[nH]1 | . | 40 | - | -
COc1ccc(C=C2C(=O)NC(=O)NC2=O)cc1Oc1ccc([N+](=O)[O-])cc1[N+](=O)[O-] | 51 | - | - | 15324
COc1cc(/C=C2\SC(=O)N(C)C2=O)ccc1Oc1ccc([N+](=O)[O-])cc1[N+](=O)[O-] | - | - | . | .
O=C(c1cncn1-c1ccccc1)N(Cc1ccco1)Cc1cccs1 | - | . | . | .
CCCCC(=O)N=c1sc2cc3c(cc2n1CCC)OCO3 | - | - | . | .
Cc1cc2c(n1-c1ccc(C(=O)N3CCN(c4ccccc4)CC3)cc1)CCCCC2 | . | - | . | .
Cc1cc2c(n1-c1ccc(C(=O)O)cc1)CCCC2 | 66 | 79 | 58 | 3001
CCCn1c(SCC(=O)c2ccccc2)nc2ccccc21 | - | . | . | .
COc1ccc(SCC(=O)O)cc1 | - | . | . | .
Cc1ccc(C)n1-c1ccc(SCC(=O)O)cc1 | 56 | 6.4 | 17 | 2022
CCc1ccc(C2CC(=O)NC(NC(=O)Cc3ccc(OC)c(OC)c3)=N2)cc1 (stereo not drawn) | - | - | . | .
O=C(c1cc(-c2ccncc2)n[nH]1)N1CCCC(C(=O)N2CCN(c3ccccn3)CC2)C1 (stereo not drawn) | - | - | . | .
O=C(CN(CC(=O)NC1CC1)Cc1ccc(Cl)cc1)NC1CC1 | - | . | . | .
Cc1cc(C)cc(N2C(=O)N(Cc3cc(=O)n4ccccc4n3)c3ccccc3S2(=O)=O)c1 | . | - | . | .
O=C1N(Cc2cc(=O)n3ccccc3n2)c2ccccc2S(=O)(=O)N1c1ccc(Cl)cc1 | . | 85 | 51 | -
COc1ccc2c(CC(=O)Nc3ccccc3)coc2c1 | - | . | . | .
COc1ccc2c(CC(=O)O)coc2c1 | - | - | - | -
COc1cc(/C=C(\C#N)c2nc3ccccc3[nH]2)ccc1OCc1ccccc1F | - | - | . | .
SMILES | HCMV UL50-53 inh | GIV-Gai inh | GIV-Gai FP conf | GIV-Gai AS conf
COc1c(Cl)cc(Cl)cc1/C=C(\C#N)c1nc2ccccc2[nH]1 | . | 46 | - | -
CCC(=O)Oc1ccc(/C=C(\C#N)c2nc3ccccc3[nH]2)cc1OC | - | - | - | -
COc1cccc(/C=C(\C#N)c2nc3ccc(C)cc3[nH]2)c1 | - | 70 | - | -
N#C/C(=C/c1ccc(Cl)cc1Cl)c1nc2ccccc2c(=O)[nH]1 | - | - | . | .
COc1cc(/C=C(\C#N)c2nc3ccc(C)cc3[nH]2)ccc1OCc1ccc(C)cc1 | - | - | . | .
CCCn1c(=O)c2sc(N3CCCC3)nc2n(CC(=O)NCCC2=CCCCC2)c1=O | . | - | . | .
O=C(CSc1ncccc1C(=O)O)c1cc2ccccc2o1 | - | - | . | .
NS(=O)(=O)c1cccc(C(=O)OCc2ccc(Cl)cc2)c1 | - | . | . | .
CCCCCn1c(SCc2ccccc2F)nc2cc(C(=O)N3CCC(C(N)=O)CC3)ccc2c1=O | . | - | . | .
Cc1ccc(NC(=O)c2sc3nc4c(c(-c5ccco5)c3c2N)CCC4)cc1 | . | 76 | - | -
Cc1ccc(NC(=O)c2sc3nc4c(c(-c5ccco5)c3c2N)CCCC4)cc1 | . | - | . | .
CCOc1cccc(N2C(=O)/C(=C/c3cn(CC(=O)N4CCOCC4)c4ccccc34)C(=O)NC2=S)c1 | - | 82 | - | -
CN1C(=O)/C(=C/c2cn(CC(=O)N3CCCC3)c3ccccc23)C(=O)NC1=S | - | - | . | .
Cc1cc(/C=C2/SC(=O)N(C(C)C)C2=O)c(C)n1-c1ccncc1 | . | - | . | .
COc1cc2c(cc1OC)C(c1ccc(Cl)cc1)OC1=C2C(=O)c2ccccc21 (stereo not drawn) | . | - | . | .
CCOc1ccccc1N(CC)C(=O)Cn1ncc2c(=O)oc3ccccc3c21 | - | - | . | .
CCN(C(=O)Cn1ncc2c(=O)oc3ccccc3c21)c1cc(OC)ccc1OC | - | - | - | -
COc1ccc(CN2C(=O)c3c(-n4cccc4)c4cc(C)ccc4n3CC2(C)C(=O)NC2CCC(C)CC2)cc1 (stereo not drawn) | - | - | . | .
O=C1CCCC(O)=C1C1=NC2(CCCCCC2)Cc2ccccc21 | . | - | . | .
O=C1CCCC(O)=C1C1(O)C(=O)c2ccccc2C1=O | 74 | 62 | 56 | -
Cc1cccc2cc(CN(C(=O)c3ccco3)C3CCCC3)c(=O)[nH]c12 | - | - | . | .
COC(=O)NC(Nc1ccccc1)C(=O)c1ccccc1 (stereo not drawn) | - | - | . | .
COc1cccc(C2=N/C(=C\c3ccccc3OC)C(=O)N2c2ccc(C)cc2Br)c1 | . | - | . | .
COc1cccc(C2=N/C(=C\c3ccccc3OC)C(=O)N2c2ccc(C)cc2C)c1 | . | 73 | - | -
COc1ccc(NC(=O)N2CCN(c3ccc(=O)n(-c4ccc(F)cc4)n3)CC2)cc1 | - | - | . | .
SMILES | HCMV UL50-53 inh | GIV-Gai inh | GIV-Gai FP conf | GIV-Gai AS conf
COc1cscc1C(=O)NC1(O)C(=O)c2ccccc2C1=O | 53 | 64 | - | -
O=C(NC1(O)C(=O)c2ccccc2C1=O)c1ccccc1 | . | 52 | 47 | -
COc1ccccc1C(=O)ON1C(=O)c2ccccc2C1=O | - | - | . | .
O=C(NN1C(=O)c2ccccc2C1=O)c1ccccc1 | - | . | . | .
Cc1oc2cc(O)cc(C)c2c(=O)c1Oc1ccccc1 | - | . | . | .
COC(=O)CCn1cnc2onc(-c3cc(F)cc(F)c3)c2c1=O | - | 71 | - | -
CC(C)NC(=O)CCn1cnc2onc(-c3cccc(F)c3)c2c1=O | - | - | . | .
COC(=O)c1ccc(-c2ncc(-c3ccc(N(C)C)cc3)o2)cc1 | - | - | - | -
COC(=O)c1ccc(-c2nnc(-c3ccc(N(C)C)cc3)o2)cc1 | - | . | . | .
CCOc1cc(/C=C/c2ccccc2OC)cc(=O)c2c(C)oc(C)c12 | . | - | . | .
COc1cccc(=O)c2c(C)oc(C)c12 | - | 25 | 37 | 7201
O=C(Nc1ccc(-c2nc3ccccc3o2)cc1)c1ccc(Br)o1 | - | - | . | .
Cc1cc(C)c2oc(-c3cccc(NC(=O)c4ccco4)c3)nc2c1 | - | - | . | .
O=C(Nc1cc(-c2nc3ccccc3o2)ccc1Cl)c1ccc(Br)o1 | - | 69 | - | -
Cc1cc(C)c2oc(-c3cccc(NC(=O)c4ccc(Br)o4)c3)nc2c1 | - | - | - | -
CC(C)n1c(=O)c(=O)[nH]c2cc(-c3noc(-c4ccc(F)cc4)n3)ccc21 | - | - | . | .
Cc1nn(-c2cc(N3CCCC3)ncn2)c(C)c1CCC(=O)Nc1cccc(Cl)c1 | - | - | . | .
N#CCCN(Cc1ccco1)C(=O)Nc1ccccc1 | - | - | . | .
Oc1ccc(N=Cc2ccccc2O)cc1 | - | - | . | .
Oc1ccccc1C=Nc1cccnc1 | - | 83 | 42 | 16309
CCOC(=O)c1nc2ccccc2nc1NCc1ccc2c(c1)OCO2 | - | - | - | -
CCOC(=O)CSc1nc(NCc2ccc3c(c2)OCO3)c2ccccc2n1 | . | - | . | .
